Reference: ChEMBL document CHEMBL5725377, “BET bromodomain inhibitors and therapeutic methods using the same” (2017)

Chains of the proteins cited; added tags and fusions are not shown.
UniProt P25440, whole entry: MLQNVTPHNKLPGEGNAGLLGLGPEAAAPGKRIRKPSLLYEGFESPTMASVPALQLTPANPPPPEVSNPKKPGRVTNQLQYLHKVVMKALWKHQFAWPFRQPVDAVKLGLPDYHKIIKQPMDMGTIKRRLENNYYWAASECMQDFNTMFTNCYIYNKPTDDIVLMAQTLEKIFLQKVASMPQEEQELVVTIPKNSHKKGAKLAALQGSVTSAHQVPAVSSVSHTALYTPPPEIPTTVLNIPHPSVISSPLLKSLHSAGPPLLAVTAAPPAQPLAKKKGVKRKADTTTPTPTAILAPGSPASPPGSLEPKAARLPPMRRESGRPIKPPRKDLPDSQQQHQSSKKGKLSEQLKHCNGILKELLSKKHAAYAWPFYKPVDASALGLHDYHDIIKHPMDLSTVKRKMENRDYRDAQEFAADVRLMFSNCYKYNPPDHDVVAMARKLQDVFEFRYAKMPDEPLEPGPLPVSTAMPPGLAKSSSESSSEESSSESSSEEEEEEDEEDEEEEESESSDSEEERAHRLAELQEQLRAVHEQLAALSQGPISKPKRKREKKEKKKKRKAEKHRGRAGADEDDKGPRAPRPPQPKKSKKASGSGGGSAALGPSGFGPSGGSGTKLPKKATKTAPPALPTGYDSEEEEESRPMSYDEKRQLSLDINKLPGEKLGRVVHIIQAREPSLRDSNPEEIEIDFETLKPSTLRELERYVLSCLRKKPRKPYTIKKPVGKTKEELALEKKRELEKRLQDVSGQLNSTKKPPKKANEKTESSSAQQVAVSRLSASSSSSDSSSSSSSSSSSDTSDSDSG
UniProt Q15059, whole entry: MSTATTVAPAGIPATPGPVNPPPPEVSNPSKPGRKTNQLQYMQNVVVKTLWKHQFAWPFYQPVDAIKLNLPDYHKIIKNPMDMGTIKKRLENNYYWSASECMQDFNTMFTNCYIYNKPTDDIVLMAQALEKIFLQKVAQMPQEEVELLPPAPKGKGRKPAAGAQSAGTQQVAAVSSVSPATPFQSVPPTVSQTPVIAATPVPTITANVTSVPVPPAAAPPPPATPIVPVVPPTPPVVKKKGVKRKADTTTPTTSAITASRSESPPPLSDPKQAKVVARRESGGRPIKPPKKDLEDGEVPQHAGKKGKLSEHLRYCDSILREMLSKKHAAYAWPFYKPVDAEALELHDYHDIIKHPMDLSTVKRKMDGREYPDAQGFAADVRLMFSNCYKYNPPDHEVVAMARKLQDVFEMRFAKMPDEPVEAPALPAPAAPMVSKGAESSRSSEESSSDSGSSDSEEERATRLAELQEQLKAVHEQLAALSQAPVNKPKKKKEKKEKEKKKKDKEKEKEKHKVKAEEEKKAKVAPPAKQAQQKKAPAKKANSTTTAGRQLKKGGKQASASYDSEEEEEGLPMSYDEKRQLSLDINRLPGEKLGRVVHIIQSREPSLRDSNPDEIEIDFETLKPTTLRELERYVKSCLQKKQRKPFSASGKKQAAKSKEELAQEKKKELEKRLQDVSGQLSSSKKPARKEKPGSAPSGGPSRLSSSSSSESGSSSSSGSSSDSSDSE

Legend:
[1] = molecular target: Bromodomain-containing protein 2 (Homo sapiens, UniProt P25440); assay: (§1) FP Competitive Binding Assay (No.350): Fluorescence Polarization (FP) competitive binding studies (see above) were carried out using the FAM labeled fluorescent probe Cpd. No. 350 to determine binding affinities of representative compounds to both BD1 and BD2 of BRD2, BRD3, and BRD4 proteins. Equilibrium dissociation constants (Id) values of Cpd. […] Final Cpd. […] Kd values of Cpd.
[2] = molecular target: Bromodomain-containing protein 3 (Homo sapiens, UniProt Q15059); assay: as §1
[3] = molecular target: Bromodomain-containing protein 4 (Homo sapiens, UniProt O60885); assay: as §1

COc1cc2c(cc1-c1c(C)noc1C)[nH]c1nc(C)nc(-c3cc(C(=O)NC4CCN(C5COC5)CC4)cc(C(C)(C)C)c3)c12
Ki [1]: 3.2 nM | Ki [2]: 2.3 nM | Ki [3]: 10 nM
